Data taken from US11786559B2, “Blood-brain barrier comprising engineered endothelial cells” (ANGIOCRINE BIOSCIENCE, INC., priority 2016, dated 2023).

Test system: human brain E4ORF1+ brain endothelial cell monolayers

permeability response to VEGF: responsive
Substance: VEGF
